Data on one compound can be found in BindingDB's records for doi:10.1016/j.bmcl.2011.06.080 (Johnson & Johnson Pharmaceutical Research and Development, 2011).

What is called IC50 is the concentration at which inhibition is half-maximal.

The assay in a line: Antagonist activity at CCR2 in human THP1 cells assessed as inhibition of MCP1-induced chemotaxis after 3 hrs.

In the case of `CN(C)c1cccc([C@]2(O)CC[C@@H](N3CC(NC(=O)CNC(=O)c4cccc(C(F)(F)F)c4)C3)CC2)c1`, the IC50 stood at 0.022 µM.
